Results on two substances are retold here after patent US7731945B2, “Immunotherapy for reversing immune suppression” (Immuno-Rx, Inc., priority 2001, dated 2010).

Assay [1] deals with splenocytes and thymocytes. The assay can be described thus: Hydrocortisone induced thymic involution in aged mice: in vivo treatment, splenocyte and thymocyte responses and markers. More on the design: species or system mouse. The following applies: after in vivo i.p. treatment for five days, ratio to saline treated control. The text has this:
The model of hydrocortisone induced thymic involution in aged mice was used unless otherwise indicated (Hadden J W, et al., Int'l J Immunopharmacol 17:821-828 (1995)).
Female BALB/c (Life Science, St. Petersburg, Fla.) aged retired breeder mice (8-9 months) whose thymuses had begun to involute were employed in in vivo tests. Mice were weight matched and randomly pooled in groups of five. Animals were fed standard laboratory diets with drinking water ad lib. All mice, with exception of a control group, were treated intraperitoneally (i.p.) with hydrocortisone (5 mg/mouse in 0.1 ml 0.9% sodium chloride) for two consecutive days to induce a chemical thymectomy and reduction of spleen weight.
Hydrocortisone-treated adult mice show acute thymic involution (less than 30% of control) and reduction in spleen size (less than 80% of control) at two days with progressive recovery to ten days.
Each treatment group had five animals and each experiment was repeated two to five times. […]
On day 8, the mice were weighed, sacrificed by cervical dislocation, and their spleens and thymuses removed and weighed. The organs were minced, the residual erythrocytes were lysed using ammonium chloride (Mishell and Shiigi (1981)), and the cells counted.
The proliferative response of the cells to various substances was then determined. […]

The subject of assay [2] is renal cell and malignant melanoma. The following applies: cited from earlier work.

In the case of rIL-2: recombinant interleukin-2, the “proliferative responses of splenocytes to in vitro stimulation with IL-1, IL-2, NCM or ConA” value in assay [1] (FIG. 6) is reported as “no significant effect”. Moreover, the “proliferative responses of thymocytes to in vitro stimulation with IL-1, IL-2, NCM or ConA” value in assay [1] (FIG. 7) is “no significant effect”.
As to “IL-2: Interleukin-2 as used in prior art cancer treatment”, in assay [2], the response rates result was “less than 20%”.
